# Assay results reported in PubChem BioAssay AID686970 (National Center for Advancing Translational Sciences (NCATS), 2013).
# The entries are a selection whose mix differs from that of the whole data set. Records with an inconclusive call do not appear. Active and inactive are the calls of the source. Calls come from the whole dose curve; as a rule, active = well fitted cell-killing curve with a large enough effect; inconclusive = small, poorly fitted or top-dose-only effect, or effect the other way; inactive = flat fitted curve, though single readings scatter.
# Assay: qHTS for induction of synthetic lethality in tumor cells producing 2HG: qHTS for the HT-1080-NT fibrosarcoma cell line;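 note: NT is the 2HG producing partner of a matched IDH1 knockdown line; 0% = DMSO-treated cells and -100% = media-only wells without cells; nearly all actives have a fitted effect of over 55% in size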
# Details: HT-1080-NT fibrosarcoma viability, CellTiter-Glo ATP luminescence, 48 h; at 46.1 µM (top of the series)
row,Compound,"activity, negative = less viability"
1,CCC(=O)N(c1ccccc1)C1(COC)CCN(CCc2cccs2)CC1,inactive: -11.1%
2,CCC(=O)N(c1ccccc1)C1(COC)CCN(CCn2nnn(CC)c2=O)CC1,inactive: 8.72%
